Data as given in paper PMC4083421 (Nature Communications, 2014).

Conditions: control protein; peptidoglycan, chitin, cellulose, xylan

For cytochrome c, the “binding to insoluble polysaccharides” value was “No binding activity was detected”.
